Consider 1 compound from publication PMC3263372 (Chembiochem, 2011).

Chains of the proteins cited; added tags and fusions are not shown. Residues count along the entry.
UniProt P10415, 1-217 limits assumed, species assumed: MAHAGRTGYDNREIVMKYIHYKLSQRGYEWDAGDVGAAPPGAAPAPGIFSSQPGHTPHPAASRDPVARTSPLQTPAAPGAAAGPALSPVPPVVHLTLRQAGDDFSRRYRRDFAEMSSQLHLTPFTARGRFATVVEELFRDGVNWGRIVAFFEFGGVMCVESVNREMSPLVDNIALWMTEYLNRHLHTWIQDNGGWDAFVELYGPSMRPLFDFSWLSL
UniProt Q07817, 1-209 limits assumed: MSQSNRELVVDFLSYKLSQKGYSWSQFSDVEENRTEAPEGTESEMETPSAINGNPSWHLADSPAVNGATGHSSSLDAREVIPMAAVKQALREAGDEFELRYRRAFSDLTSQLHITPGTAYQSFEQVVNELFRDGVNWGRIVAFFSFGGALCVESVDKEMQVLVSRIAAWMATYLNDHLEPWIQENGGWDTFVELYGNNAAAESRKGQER
UniProt Q07820, 171-327 E173D/A193S/T196S/M199L/R201E/S202A/T205A/S206G/K208R limits assumed: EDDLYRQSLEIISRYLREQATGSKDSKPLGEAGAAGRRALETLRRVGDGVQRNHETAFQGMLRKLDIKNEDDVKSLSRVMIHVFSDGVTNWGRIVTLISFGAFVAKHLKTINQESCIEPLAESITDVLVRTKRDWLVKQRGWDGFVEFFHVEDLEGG

Each structure is given as a SMILES string.

Holding throughout (test): Solution competition SPR
Common to all, as to settings: in words

In assay [1] the target is Bcl-2 (Homo sapiens, UniProt P10415). Format: binding.
Assay [2] deals with Bcl-xL (Homo sapiens, UniProt Q07817). Format: binding.
Assay [3] concerns the target Mcl-1 (Homo sapiens, UniProt Q07820, A193S/E173D/K208R/M199L/R201E/S202A/S206G/T196S/T205A). In kind it is binding, human/mouse chimeric.

Consider `CC[C@H](C)[C@H](NC(=O)C[C@H](CCC(=O)O)NC(=O)[C@H](CCCNC(=N)N)NC(=O)[C@H](C)NC(=O)C[C@H](Cc1c[nH]c2ccccc12)NC(=O)[C@H](CCC(N)=O)NC(=O)[C@H](CCC(=O)O)NC(=O)[C@H](CCC(=O)O)NC(C)=O)C(=O)NCC(=O)N[C@@H](C)C(=O)N[C@@H](CCC(N)=O)CC(=O)N[C@@H](CC(C)C)C(=O)N[C@@H](CCCNC(=N)N)C(=O)N[C@@H](CCCNC(=N)N)CC(=O)N[C@@H](CCSC)C(=O)N[C@@H](C)C(=O)N[C@@H](CC(=O)O)C(=O)N[C@@H](CC(=O)O)CC(=O)N[C@@H](CC(C)C)C(=O)N[C@@H](CC(N)=O)C(=O)N[C@@H](C)CC(=O)N[C@@H](CCC(N)=O)C(=O)N[C@@H](Cc1ccc(O)cc1)C(=O)N[C@@H](CCC(=O)O)C(=O)N[C@@H](CCCNC(=N)N)CC(=O)N[C@@H](CCCNC(=N)N)C(N)=O` [α/β-peptide 2], for which the “binding to Bcl-2 relative to Puma BH3 α-peptide 1” value in assay [1] is “matches”. Moreover, the “binding to Bcl-xL relative to Puma BH3 α-peptide 1” value in assay [2] is listed as “matches”. In assay [3], the “affinity for Mcl-1 relative to the authentic BH3 domain” value is given as “considerably lower affinity”.
